The chains behind the UniProt entries cited, without tags or fusion partners. Residues count along the entry.
UniProt P07333, 20-972: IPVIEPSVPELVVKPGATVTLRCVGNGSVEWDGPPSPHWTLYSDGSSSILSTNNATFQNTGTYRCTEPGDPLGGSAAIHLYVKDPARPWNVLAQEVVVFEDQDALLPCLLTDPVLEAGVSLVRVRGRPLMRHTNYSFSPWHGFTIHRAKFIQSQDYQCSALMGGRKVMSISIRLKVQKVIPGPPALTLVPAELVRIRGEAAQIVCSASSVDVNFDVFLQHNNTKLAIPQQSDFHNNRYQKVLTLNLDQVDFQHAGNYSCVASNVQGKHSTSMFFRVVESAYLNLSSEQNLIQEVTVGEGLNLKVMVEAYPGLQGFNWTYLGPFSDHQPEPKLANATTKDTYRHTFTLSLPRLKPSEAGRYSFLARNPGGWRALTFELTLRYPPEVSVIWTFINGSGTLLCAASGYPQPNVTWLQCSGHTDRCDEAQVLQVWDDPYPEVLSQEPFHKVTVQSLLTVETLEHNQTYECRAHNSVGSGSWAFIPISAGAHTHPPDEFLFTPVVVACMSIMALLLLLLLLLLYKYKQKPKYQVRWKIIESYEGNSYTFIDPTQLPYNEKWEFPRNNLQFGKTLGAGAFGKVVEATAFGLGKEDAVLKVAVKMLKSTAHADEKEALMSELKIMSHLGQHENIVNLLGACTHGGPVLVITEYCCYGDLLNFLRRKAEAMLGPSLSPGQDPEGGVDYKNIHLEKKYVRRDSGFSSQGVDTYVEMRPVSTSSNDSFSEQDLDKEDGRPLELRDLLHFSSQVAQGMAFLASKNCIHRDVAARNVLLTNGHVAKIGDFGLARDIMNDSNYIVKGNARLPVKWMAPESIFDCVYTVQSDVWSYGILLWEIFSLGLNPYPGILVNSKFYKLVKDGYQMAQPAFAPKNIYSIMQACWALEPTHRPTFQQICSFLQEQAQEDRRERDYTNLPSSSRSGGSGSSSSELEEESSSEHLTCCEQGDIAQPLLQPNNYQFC

According to patent publication US11274108B2 (priority 2015, dated 2022):

Assays:
human cFMS = human cFMS (Homo sapiens (Human), UniProt P07333); experiment: cell-based
IL-6 = details: mouse, in vivo
[1] = system: MOG-Induced NOD Progressive EAE Model; details: mouse, in vivo
IL-12p40 = details: mouse, in vivo
RANTES = details: mouse, in vivo
MCSF = details: mouse, in vivo
MCP-1 = details: mouse, in vivo
IL-1β = details: mouse, in vivo
[2] = system: Chitinase 3-Like 3/ECF-L (YM-1); details: mouse, in vivo
TNF-α = details: mouse, in vivo
IP-10 = details: mouse, in vivo
TGF-β1 = details: mouse, in vivo
IL-10 = details: mouse, in vivo
[3] = system: TNFα, CSF-1R, Arg1, IL-6, Ym1 and MCP-1 gene expression in spinal cord; details: mouse, in vivo
BDNF = details: mouse, in vivo

SMILES | IC50 (human cFMS) | IL-6 levels in spinal cord homogenates (IL-6) | reduction in axonal damage [1] | reduction in demyelination [1] | IL-12p40 levels (IL-12p40) | RANTES levels (RANTES) | MCSF levels (MCSF) | MCP-1 levels in spinal cord homogenates (MCP-1) | IL-1β levels in spinal cord homogenates (IL-1β) | Ym-1 levels [2] | TNF-α levels in the spinal cord (TNF-α) | IP-10 levels in spinal cord homogenates (IP-10) | levels of TGF-β (TGF-β1) | IL-10 levels (IL-10) | gene expression of Arg1 in spinal tissue [3] | gene expression of IL-6 in spinal tissue [3] | gene expression of MCP-1 in spinal tissue [3] | gene expression of TNFα in spinal tissue [3] | gene expression of Ym-1 in spinal tissue [3] | BDNF levels (BDNF)
COc1ccc(C2CSc3cc(Cn4cnc5cc(C#CC(C)(C)N)cnc54)ccc3O2)cn1 (centres unmarked) [Example 1-251, 4-(3-((2-(6-methoxypyridin-3-yl)-2,3-dihydrobenzo[b][1,4]oxathiin-6-yl)methyl)-3H-imidazo[4,5-b]pyridin-6-yl)-2-methylbut-3-yn-2-amine] | 300 nM | – | – | – | – | – | – | – | – | – | – | – | – | – | – | – | – | – | – | –
COc1ccc(C2COc3cc(Cn4cnc5cc(C#CC(C)(C)N)cnc54)ccc3O2)cn1 (centres unmarked) [Genz-882706, 4-(3-((2-(6-methoxypyridin-3-yl)-2,3-dihydrobenzo[b][1,4]dioxin-6-yl)methyl)-3H-imidazo[4,5-b]pyridin-6-yl)-2-methylbut-3-yn-2-amine] | – | significant decreases | > 40% | > 40% | no effects | no effects | no effects | significant decreases | significant decreases | vehicle control had significantly increased Ym-1 levels when compared to either the naïve control or Genz-882706 treated groups | significant increase | significant decreases | trend towards decreased levels | trend towards increased IL-10 levels | trend towards decreased gene expression | trend towards decreased gene expression | trend towards decreased gene expression | trend towards decreased gene expression | trend towards up-regulation | not affected
